Reference: patent US20080181848A1 (priority 2004, published 2008)

Sequences of proteins named here, by UniProt entry; tags and fusion partners are left off.
UniProt P61169, whole entry: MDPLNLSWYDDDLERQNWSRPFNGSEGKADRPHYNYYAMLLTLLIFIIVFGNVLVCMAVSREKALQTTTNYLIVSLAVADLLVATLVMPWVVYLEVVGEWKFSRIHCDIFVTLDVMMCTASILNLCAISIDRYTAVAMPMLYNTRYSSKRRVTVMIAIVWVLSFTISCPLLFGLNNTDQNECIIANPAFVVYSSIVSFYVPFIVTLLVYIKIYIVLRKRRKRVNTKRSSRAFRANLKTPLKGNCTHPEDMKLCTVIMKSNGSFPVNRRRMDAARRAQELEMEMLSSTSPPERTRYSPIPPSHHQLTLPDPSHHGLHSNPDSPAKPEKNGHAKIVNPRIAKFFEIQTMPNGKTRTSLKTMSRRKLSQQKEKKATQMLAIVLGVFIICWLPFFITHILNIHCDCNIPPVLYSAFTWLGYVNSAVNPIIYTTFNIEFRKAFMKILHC

Experiments:
D2 receptors in striatum = D2 receptors in striatum (Rattus norvegicus, UniProt P61169); test: Binding of intravenously injected radioligand in rat striatum, alone and co-injected with NPA (Examples 2 and 3)
D2^High = D2^High (Rattus norvegicus, UniProt P61169); test: In vitro binding of [3H](+)PHNO in rats sensitized to amphetamine; settings: rats sensitized to become supersensitive to amphetamine; tested as the radiolabelled form
[1] = radioligand co-injected i.v. with NPA 25 μg/kg, tested as the radiolabelled form

Structure (SMILES): CCCN1CCO[C@@H]2c3cc(O)ccc3CC[C@H]21
- Control DPM/mg (total binding in striatum) (D2 receptors in striatum; 30 min after i.v. 0.1 nmol radioligand, no NPA, n=6, tested as the radiolabelled form): 33.9 DPM/mg
- Control (D2 receptors in striatum; 30 min after i.v. 0.1 nmol radioligand, no NPA, tested as the radiolabelled form): 3.12 pmol/g
- pmol/g Displaced by NPA (D2 receptors in striatum; NPA 25 μg/kg co-injected, tested as the radiolabelled form): 1.65 pmol/g
- With NPA (D2 receptors in striatum; [1]): 1.47 pmol/g
- With NPA DPM/mg (D2 receptors in striatum; [1]): 16.02 DPM/mg
- in vitro binding of [3H](+)PHNO, which labels D2^High (D2^High): increased
